Results reported in patent publication US6906058B2.

The chains behind the UniProt entries cited, without tags or fusion partners.
UniProt Q12908, whole entry: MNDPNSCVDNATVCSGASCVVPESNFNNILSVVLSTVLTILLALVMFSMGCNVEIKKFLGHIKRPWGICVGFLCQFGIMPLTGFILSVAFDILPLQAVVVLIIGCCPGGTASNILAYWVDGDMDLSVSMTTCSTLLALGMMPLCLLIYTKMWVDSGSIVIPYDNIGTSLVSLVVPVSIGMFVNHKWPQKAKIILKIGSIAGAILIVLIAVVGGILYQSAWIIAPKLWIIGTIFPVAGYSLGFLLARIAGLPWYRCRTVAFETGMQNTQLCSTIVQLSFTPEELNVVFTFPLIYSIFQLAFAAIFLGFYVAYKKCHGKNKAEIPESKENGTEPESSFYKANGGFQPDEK

Target: IBAT (Homo sapiens, UniProt Q12908)
Experiment: in vitro test assay for the effect on bile acid uptake in IBAT-transfected cells
Source text: These properties may be assessed, for example, using an in vitro test assay for studying the effect on bile acid uptake in IBAT-transfected cells (Smith L., Price-Jones M. J., Hugnes K. T. and Jones N. R. A.; J Biomolecular Screening, 3, 227-230) or in vivo by studying the effect on radiolabelled bile acid absorption in mice/rats (Lewis M. C., Brieaddy L. E. and Root C., J., J Lip Res 1995, 36, 1098-1105).

IC50: 2.1 µM
Structure (SMILES): CCCCC1(CC)CN(c2ccccc2)c2cc(Br)c(OCC(=O)NCCCS(=O)(=O)O)cc2S(=O)(=O)C1 (stereo not shown)
